The entries are a selection whose mix differs from that of the whole data set. Records with an inconclusive call do not appear. A call without a number means that no potency is given here. Calls of active or inactive are those of the source. Calls come from the whole dose curve; as a rule, active = well fitted inhibition curve with a large enough effect; inconclusive = small, poorly fitted or top-dose-only effect; inactive = flat fitted curve, though single readings scatter.
Test: qHTS for Inhibitors of human tyrosyl-DNA phosphodiesterase 1 (TDP1): qHTS in cells in presence of CPT; note: nearly all actives have a fitted effect of over 55% in size
Conditions: chicken DT40 Tdp1-/-;hTDP1 cells + 20 nM CPT, ATP luminescence, 48 h; series mostly up to 46.2 µM
Potency is the fitted concentration of half-maximal effect.

Question: For `Clc1ccc(Cl)c(NC2=NCC(CBr)S2)c1` (stereo not given), which Potency is on record?
Answer: active: 18.4 µM

Question: Which Potency does the source give for `CCNC(C)Cc1ccc2c(c1)OCO2` (stereo not given) here?
Answer: inactive

Question: Which Potency does the source give for `NC(=O)c1cc([N+](=O)[O-])cc([N+](=O)[O-])c1N` here?
Answer: inactive

Question: With `Cc1ccc(N/C(=N/P(=O)(N2CCOCC2)N2CCOCC2)N2CCOCC2)cc1` as the molecule, how does the Potency read?
Answer: inactive

Question: For `CCN(N=Nc1nonc1N)c1nonc1N`, which Potency is on record?
Answer: inactive

Question: Which Potency does the source give for `Nc1cccc2ccc([As](=O)(O)O)cc12` here?
Answer: inactive

Question: With `CCOP(=O)(Nc1ccccc1)OCC` as the molecule, how does the Potency read?
Answer: inactive

Question: With `Cc1ccc(NP(=O)(Oc2ccccc2F)Oc2ccccc2F)nc1` as the molecule, how does the Potency read?
Answer: inactive

Question: Which Potency does the source give for `CC(=O)Nc1ccc([As](=O)(O)O)cc1` here?
Answer: inactive

Question: With `O=C(O)c1ccccc1[As](=O)(O)O` as the molecule, how does the Potency read?
Answer: inactive

Question: For `CCCC1OP(N)(=O)OCC1CC` (stereo not given), which Potency is on record?
Answer: inactive

Question: For `O=P(Nc1nc2ccc(Cl)cc2s1)(c1ccccc1)c1ccccc1`, which Potency is on record?
Answer: inactive

Question: For `COC(=O)C1(C)COP(=O)(Nc2ccccc2)OC1` (stereo not given), which Potency is on record?
Answer: inactive

Question: For `O=[N+]([O-])c1cccc(NC2=NCC(CBr)S2)c1` (stereo not given), which Potency is on record?
Answer: active: 14.6 µM

Question: With `O=C(O)CNc1ccc([As](=O)(O)O)cc1` as the molecule, how does the Potency read?
Answer: inactive

Question: With `CC(C)(C)C(=O)NC(Sc1ccncn1)C(Cl)(Cl)Cl` (stereo not given) as the molecule, how does the Potency read?
Answer: inactive

Question: For `O=[N+]([O-])c1ncn(CCn2ncnc2[N+](=O)[O-])n1`, which Potency is on record?
Answer: inactive

Question: For `O=P(/N=c1/nc(-c2ccccc2)n(-c2ccccc2)s1)(Nc1ccccc1)Nc1ccccc1`, which Potency is on record?
Answer: active: 7.08 µM

Question: For `O=C(Nc1cc([As](=O)(O)O)ccc1O)c1ccccc1`, which Potency is on record?
Answer: inactive

Question: For `O=P1(N(CCCl)CCCl)OCCCS1` (stereo not given), which Potency is on record?
Answer: inactive

Question: Which Potency does the source give for `COc1cc([N+](=O)[O-])c([N+](=O)[O-])cc1OC` here?
Answer: active: 10 µM

Question: With `CC(C)=N/N=C(\N)N[N+](=O)[O-]` as the molecule, how does the Potency read?
Answer: inactive

Question: For `CC(=O)C1=CCCC2CCC1N2` (stereo not given), which Potency is on record?
Answer: inactive

Question: Which Potency does the source give for `CC1CCN(C(=O)Oc2c(Cl)cc(Cl)c3cccnc23)CC1` here?
Answer: inactive

Question: With `c1cc(-c2nn[nH]n2)ccc1-c1nn[nH]n1` as the molecule, how does the Potency read?
Answer: inactive

Question: With `Nc1ccc([As](=O)(O)c2ccc(N)cc2)cc1` as the molecule, how does the Potency read?
Answer: inactive

Question: For `CCN(/C(=N/P(=O)(N1CCOCC1)N1CCOCC1)N1CCOCC1)c1ccc(OC)cc1`, which Potency is on record?
Answer: inactive

Question: With `O=[N+]([O-])c1cccc2n[nH]nc12` as the molecule, how does the Potency read?
Answer: inactive

Question: With `CC(=O)N1C2C3N(C(C)=O)C1C1N(C(C)=O)C(C(N1C(C)=O)N3C(C)=O)N2C(C)=O` as the molecule, how does the Potency read?
Answer: inactive

Question: Which Potency does the source give for `Cc1ccc(NP(=O)(Oc2ccccc2)Oc2ccccc2)nc1` here?
Answer: inactive
